In patent US5583127A, “17-iminomethylalkenyl-5 β, 14 β-androstane and 17-iminoalkyl-5 β, 14 β-androstane derivatives active on the cardiovascular system, and pharmaceutical compositions containing same” (Sigma-Tau Industrie Farmaceutiche Riunite S.p.A., priority 1993, dated 1996):

Molecular target: Na^+, K^+ -ATPase receptor (Homo sapiens, UniProt P05023)
Assay: displacement of the specific 3H-ouabain binding from the Na+,K+-ATPase receptor
Conditions: displacement of specific 3H-ouabain binding

C[C@]12CC[C@H](O)C[C@H]1CC[C@@H]1[C@@H]2CC[C@]2(C)[C@@H](/C=C/C=N/O)CC[C@]12O
Binding ^3 H-Ouab. Displacement log IC50: 5.6
